From patent publication US12364718B2, “Microbial compositions to increase the production of PCA from polyphenols” (priority 2020, dated 2025)

Test system: B. subtilis 1579
Assay: National Antimicrobial Resistance Monitoring System (NARMS) panel screening, MIC in […] 96-well plate
Format: cell-based, Bacillus subtilis
Settings: CLSI M45 Bacillus spp. or NARMS Enterococcus breakpoints; for MIC interpretation (susceptible/intermediate/resistant), 1579a: duplicate a; for MIC interpretation (susceptible/intermediate/resistant), 1579b: duplicate b
Procedure: Methods. […] A sterile swab was used to take a portion of the pellet and resuspended in sterile ddH2O tubes; a 0.5 McFarland standard was used to determine the optimal dilution. 15 microliters of the ddH2O was transferred into the 5 mL tubes of Mueller-Hinton broth and the mixture was vortexed and poured into a sterile boat. A p200 multi-channel pipette was used to transfer 50 microliters into each well of the […] 96-well microtiter plate (CMV3AGPF) plate (FIG. 3) and sealed. The plates were incubated at 37° C. overnight. The plates were removed at 18 hours and each well was given a result of either positive or negative depending on if there was any growth in the well.

Row | Compound | MIC interpretation (susceptible/intermediate/resistant), 1579a | MIC interpretation (susceptible/intermediate/resistant), 1579b
1 | NC[C@H]1O[C@H](O[C@H]2[C@H](O)[C@@H](O[C@H]3O[C@H](CO)[C@@H](O)[C@H](N)[C@H]3O)[C@H](N)C[C@@H]2N)[C@H](O)[C@@H](O)[C@@H]1O [Kanamycin] | S | R
2 | CCC[C@@H]1C[C@@H](C(=O)N[C@@H]([C@H]2O[C@H](SC)[C@H](O)[C@@H](O)[C@H]2O)[C@@H](C)O)N(C)C1 [Lincomycin] | R | R
3 | CC(=O)NC[C@H]1CN(c2ccc(N3CCOCC3)c(F)c2)C(=O)O1 [Linezolide] | I | R
4 | [H]/N=C(/N)N[C@H]1[C@H](O)[C@@H](O)[C@H](O[C@@H]2O[C@@H](C)[C@](O)(C=O)[C@H]2O[C@@H]2O[C@@H](CO)[C@H](O)[C@@H](O)[C@@H]2NC)[C@@H](N/C(N)=N\[H])[C@@H]1O [Streptomycin] | R | S
5 | CC[C@H]1OC(=O)C[C@@H](O)[C@H](C)[C@@H](O[C@@H]2O[C@H](C)[C@@H](O[C@H]3C[C@@](C)(O)[C@@H](O)[C@H](C)O3)[C@H](N(C)C)[C@H]2O)[C@@H](CC=O)C[C@@H](C)C(=O)/C=C/C(C)=C/[C@@H]1CO[C@@H]1O[C@H](C)[C@@H](O)[C@@H](OC)[C@H]1OC [Tylosin tartrate] | S | S
6 | Quinupristin/dalfopristin | R | R

Where a name gives a salt, the structure may show the parent alone.
